The values that follow are results of earlier work, collected in patent publication US12551577B2, “7-ethyl-10-hydroxycamptothecin drug precursor with fluorescence activity, and preparation method and use thereof” (SOOCHOW UNIVERSITY, priority 2021, dated 2026).

This series relates to carboxylesterase. The conditions noted are these: in vivo; cited from earlier work.

Regarding `CCc1c2c(nc3ccc(OC(=O)N4CCC(N5CCCCC5)CC4)cc13)-c1cc3c(c(=O)n1C2)COC(=O)[C@]3(O)CC` [irinotecan], the “fraction of CPT-11 efficiently converted into SN-38” value is on record as 2-8%.
